Columns and labels:
[1] = molecular target: Acetylcholinesterase (Homo sapiens) (UniProt P22303); assay: Reactivation of sarin-inhibited human AChE assessed as second order rate constant incubated for 30 mins by Ellman's method; conditions: filed as activator
[2] = molecular target: Acetylcholinesterase (Homo sapiens) (UniProt P22303); assay: Reactivation of tabun-inhibited human AChE assessed as second order rate constant incubated for 30 mins by Ellman's method; conditions: filed as activator

Protein sequences, listed by entry. Tags and fused reporters are not part of them. Lines headed by an entry give the natural chain unless they say otherwise; changes in a name come on top.
UniProt P22303: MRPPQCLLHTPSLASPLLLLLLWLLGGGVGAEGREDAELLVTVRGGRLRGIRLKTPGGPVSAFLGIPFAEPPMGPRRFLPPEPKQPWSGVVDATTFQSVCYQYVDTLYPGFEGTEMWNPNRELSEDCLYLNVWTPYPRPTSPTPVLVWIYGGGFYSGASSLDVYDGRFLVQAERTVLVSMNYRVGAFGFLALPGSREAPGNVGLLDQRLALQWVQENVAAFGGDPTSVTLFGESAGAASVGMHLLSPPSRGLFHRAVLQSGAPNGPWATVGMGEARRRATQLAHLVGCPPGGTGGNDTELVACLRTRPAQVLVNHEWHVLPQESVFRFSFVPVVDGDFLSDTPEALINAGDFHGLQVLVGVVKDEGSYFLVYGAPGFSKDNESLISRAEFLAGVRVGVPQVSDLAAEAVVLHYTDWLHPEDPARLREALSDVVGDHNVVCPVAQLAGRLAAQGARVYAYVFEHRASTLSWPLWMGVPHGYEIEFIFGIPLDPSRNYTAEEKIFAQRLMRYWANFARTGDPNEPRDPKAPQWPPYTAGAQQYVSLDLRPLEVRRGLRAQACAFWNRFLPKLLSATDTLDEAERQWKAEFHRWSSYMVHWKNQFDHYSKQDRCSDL

| Compound | Kr [1] [M⁻¹ s⁻¹] | Kr [2] [M⁻¹ s⁻¹] |
| --- | --- | --- |
| O/N=C/c1cc(Cl)cc(CN2CCN(c3ccncc3)CC2)c1O | 15 |  |
| Cc1cc(/C=N/O)c(O)c(CNc2ccc(Cn3cncn3)cc2)c1 |  | 2 |
| Cc1cc(/C=N/O)c(O)c(CN2CCN(c3ccncc3)CC2)c1 | 14.5 |  |

— ChEMBL document CHEMBL4732229
